scFv variants of Ab-14 (heavy chain) against a SARS-CoV-2 spike peptide

The target is the same throughout: PDVDLGDISGINAS, from the HR2 region of SARS-CoV-2 spike.

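Phage display of a naive human antibody library on the peptide gave the parent. AAYL49 was designed without a model: most single CDR substitutions and a random sample of double and triple ones. Affinity was read by AlphaSeq, a pooled yeast mating assay with surface-displayed partners. Pairs that bind mate more often; barcode pairs of the diploids are counted by sequencing. A regression on co-assayed BCL2-family reference pairs converts the normalised counts of each replicate to an apparent Kd. Each pool was mated in three replicate cultures.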

Parent: Ab-14, a human scFv built as VH, the linker GGGGSGGGGSGGGGS, VL. Only the CDRs of the heavy chain vary.
VH: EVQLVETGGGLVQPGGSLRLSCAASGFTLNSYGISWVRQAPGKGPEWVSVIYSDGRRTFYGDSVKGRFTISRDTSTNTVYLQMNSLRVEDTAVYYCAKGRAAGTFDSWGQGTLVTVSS
VL: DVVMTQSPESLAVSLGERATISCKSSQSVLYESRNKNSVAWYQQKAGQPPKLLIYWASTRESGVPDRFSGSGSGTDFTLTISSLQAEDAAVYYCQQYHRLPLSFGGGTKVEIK

The parent's heavy chain CDRs are GFTLNSYGIS, VIYSDGRRTFYGDSVK, GRAAGTFDS; each variant's own CDRs replace them letter for letter. All variants listed here change D54 of the VH, counted from its first residue. Scale: log10 of Kd in nM, estimated from mating counts; low values are strong binders. An entry "nd" has no value in the source: the pair was not observed among the diploids in that replicate. This suggests poor binding but is not conclusive. Nonspecific signal, from three strains lacking the peptide, appeared in 15% of pairings of library AAYL49, centred on 4.06 (5% of these signals below 2.83); values are not corrected for it.

With GFTLNSYGIS / RIYSQGRRTFYGDSVK / GRAAGTFDS the result was nd, nd, nd. With GFTLNSYGIS / VIFSPGRRTFYGDSVK / GRAAGTFDS the result was nd, nd, nd. Variant GFTLNSYGIS / VIYSAGTRTFYGDSVK / RRAAGTFDS gave nd, nd, nd. Variant GFTLNSYGIS / VIYSEGRRTFYGDSVK / GRAWGTFDH gave nd, 4.07, nd. For QFTLNQYGIS / VIYSQGRRTFYGDSVK / GRAAGTFDS, the assay gave nd, nd, nd. Variant VFTLNLYGIS / VIYSTGRRTFYGDSVK / GRAAGTFDS gave nd, nd, nd.

With GFTLDSYGIS / VIYSTGRRTFYGDSVC / GRAAGTFDS the result was nd, nd, nd. With GFTLNSYGIS / VIYSEGRRTVQGDSVK / GRAAGTFDS the result was nd, nd, nd. With GFSLNSYGIS / VIYSGGRRTFYGDFVK / GRAAGTFDS the result was nd, nd, nd. Variant GFTMNSYGIS / VIYSKGRRTFYGDSVK / WRAAGTFDS showed nd, nd, nd. Variant GFTLRSYGIS / VIYSWGRRTFYGDSVK / GRAAGTFDE gave nd, nd, nd. With GFTFNSYGIS / VIYSHGRRTFYGDSVK / GRAAGTFDS the result was 4.95, nd, nd.

With GFTLNSYGIS / VIYSIGRRTAYDDSVK / GRAAGTFDS the result was nd, nd, nd. With GFTLNSYGVS / VIYSMGRRTFYGDSVK / GRAAGTFDS the result was nd, 1.75, nd. With GFTLNSYGIN / VIYSNGRRTFYLDSVK / GRAAGTFDS the result was nd, nd, nd. With GFTLNSYGIS / VIYSFGRRTCYGKSVK / GRAAGTFDS the result was nd, nd, nd. With EFTYNSYGIS / VIYSGGRRTFYGDSVK / GRAAGTFDS the result was 3.93, nd, nd. For GFTLNSLGIS / VIYSLGRRTFYGDSVK / GRAEGTFDS, the assay gave nd, nd, nd.

Variant GLTLNSYGIS / VIYSWGRRTFYGDSVM / GRAAGTFDS gave nd, nd, nd. Variant GFTLNSYGIV / VIYSCGRRTYYGDSVK / GRAAGTFDS gave nd, 5.01, nd. Variant GFTLCSYGIS / VIYSCGRRTFYGDSVK / GRACGTFDS gave 4.40, 3.63, 6.04. For GFTLSSYGIS / VIYSGGRRTFYGDSVK / GRANGTFDS, the assay gave nd, nd, nd. With MFTLNSYGIS / VIYSRHRRTFYGDSVK / GRAAGTFDS the result was nd, nd, nd. Variant FFTLNSYGIS / VIYSRGRRTFYTDSVK / GRAAGTFDS showed 3.84, 3.84, nd.

Variant GFTANSYGIN / VIYSRGRRTFYGDSVK / GRAAGTFDS gave 4.20, nd, nd. Variant GFTLNSYGIS / VIYSQGRRTFYGDSVK / GRAAGTFDS gave nd, nd, nd. For GFTLNFYGIS / VMYSIGRRTFYGDSVK / GRAAGTFDS, the assay gave nd, 3.95, 5.36. With GLTLNSYGHS / VIYSCGRRTFYGDSVK / GRAAGTFDS the result was nd, 2.60, nd. For GFTHNSYGIS / VIYSAGRRTFYGDSVK / GRAASTFDS, the assay gave nd, 2.99, 4.51. Variant AFTLNSYGIS / VIYSRGRRTFYGDSVK / GRAAKTFDS gave nd, nd, nd.

Variant GFTLNSYGIS / MIYSGGRRTFYGDSVK / GRAAGTFDN gave nd, nd, nd. Variant GFTLNSYGIS / VIYSVGRRTFYGDSVK / GRHAGTFDS showed nd, nd, nd. Variant GFTLNSYGIS / VIYSWYRRTFYGDSVK / GRAAGTFDV gave nd, nd, nd. Variant GFTLNSYGIS / VIYSAGRQTFYGDSVR / GRAAGTFDS showed nd, 4.67, nd. With GFTLNSYGIS / VIYSEGRRTFYGDWVK / GRAAGTFDS the result was nd, 3.22, nd. For GFTLNSYGIG / VIYSVGRRTFYGDSVK / GRAKGTFDS, the assay gave nd, nd, nd.

Variant GFTLNSYGIS / VIYSGGRRTFYGDSVK / GRAAGTFTS gave nd, nd, nd. Variant GFTLNSYGII / VIYGGGRRTFYGDSVK / GRAAGTFDS gave nd, nd, nd. Variant GFTLNSYGIS / VIYSYGRRTCYGDSVK / GRAAGTFDS gave nd, nd, nd. For LFTLNSCGIS / VIYSQGRRTFYGDSVK / GRAAGTFDS, the assay gave nd, nd, nd. Variant GHTLNSYGIS / VIYSNGRRTWYGDSVK / GRAAGTFDS gave nd, nd, nd. Variant GFTLNSYGIS / VIYSIRRDTFYGDSVK / GRAAGTFDS gave nd, nd, nd.

Variant GFTLNSYGIS / VIYSHGRRTFYGDSAK / GRAAGTPDS gave 3.83, nd, nd. With GFTLCSYGIS / VIYSNGNRTFYGDSVK / GRAAGTFDS the result was nd, nd, nd. With GFTLNSYGIS / VIYSVGRRTDYGDSVK / GRAAGTFDS the result was nd, nd, nd. Variant GFTLNSYGIS / VIYSNGRRTFYGDSVK / PRAAGTFDS gave nd, 3.87, nd. Variant GFTLNSYGIS / VIYSGGRRTFYGGSVK / GRAAGTFVS showed nd, 3.60, nd. For GFTLNSYGMS / VIYSRGRRTFYGDSVK / GRAAGTFDS, the assay gave nd, 3.66, nd.

Variant GFTLNSYGIS / VIYSMGRRTFYGDLVK / GRAAGTFDS showed nd, 5.00, 3.98. Variant GFKLNSYGIS / VIYSWGRRTFYGDSVK / GRAAGTFFS gave nd, nd, 6.10. Variant GFTLNSYGIS / VIYSSGRRTFYGDSVK / GRAANTFDS showed nd, nd, nd.

In this assay the parent's reference entry averaged 0.65; its copy inside this library read 4.11 (one replicate of three).

Values reported by Engelhart et al. 2022, doi:10.1038/s41597-022-01779-4 (FLAb copy).